# From patent US20110301099A1, “Method for enhancing penetration of lipid insoluble medicaments through cell membranes using small S-Allyl-containing molecules with phospholipid permeability as carrier molecules” (priority 2010, published 2011)
substance,measurement,value
S-allyl cysteine sulfoxide [alliin],lipid solubility,capability to dissolve in lipids
